Laboratory results published in patent US7329782B2, “Compounds for the treatment of metabolic disorders” (Wellstat Therapeutics Corporation, priority 2001, dated 2008).

System: ob/ob mice
Conditions: daily oral, 4 weeks

For `CN(CCOc1ccc(CC2SC(=O)NC2=O)cc1)c1ccccn1` (stereo not drawn) [Rosiglitazone, rosiglitazone], the “ALT ± SEM (serum enzyme indicator of liver injury)” value (“ALT ± SEM” for short) (1 mg/kg/day) was 668.8 ± 42.9 U/L, the “AST ± SEM (serum enzyme indicator of liver injury)” value (from here on “AST ± SEM”) (1 mg/kg/day) was 798.0 ± 73.8 U/L and the “SDH ± SEM (serum enzyme indicator of liver injury)” value (from here on “SDH ± SEM”) (1 mg/kg/day) was 644.5 ± 51.6 U/L. The “ALT ± SEM” value (3 mg/kg/day) was 716.6 ± 56.6 U/L, the “AST ± SEM” value (3 mg/kg/day) was 853.8 ± 43.8 U/L and the “SDH ± SEM” value (3 mg/kg/day) was 615.4 ± 38.6 U/L. For the same compound, the “ALT ± SEM” value (10 mg/kg/day) was 713.6 ± 80.5 U/L, the “AST ± SEM” value (10 mg/kg/day) was 1024.0 ± 88.7 U/L and the “SDH ± SEM” value (10 mg/kg/day) was 782.0 ± 70.6 U/L. For the same compound, the “ALT ± SEM” value (30 mg/kg/day) was 646.0 ± 56.1 U/L, the “AST ± SEM” value (30 mg/kg/day) was 901.2 ± 49.3 U/L and the “SDH ± SEM” value (30 mg/kg/day) was 603.0 ± 27.3 U/L.

Like-named read-outs stand apart in the source and are kept apart here.
